IC50 data for one molecule are collected here from US6953812B2, “Glucagon antagonists/inverse agonists” (Novo Nordisk, Inc., priority 2000, dated 2005).

By UniProt entry, the sequences of proteins in these tests, tags left out. Residues count along the entry.
UniProt P47871, 26-477: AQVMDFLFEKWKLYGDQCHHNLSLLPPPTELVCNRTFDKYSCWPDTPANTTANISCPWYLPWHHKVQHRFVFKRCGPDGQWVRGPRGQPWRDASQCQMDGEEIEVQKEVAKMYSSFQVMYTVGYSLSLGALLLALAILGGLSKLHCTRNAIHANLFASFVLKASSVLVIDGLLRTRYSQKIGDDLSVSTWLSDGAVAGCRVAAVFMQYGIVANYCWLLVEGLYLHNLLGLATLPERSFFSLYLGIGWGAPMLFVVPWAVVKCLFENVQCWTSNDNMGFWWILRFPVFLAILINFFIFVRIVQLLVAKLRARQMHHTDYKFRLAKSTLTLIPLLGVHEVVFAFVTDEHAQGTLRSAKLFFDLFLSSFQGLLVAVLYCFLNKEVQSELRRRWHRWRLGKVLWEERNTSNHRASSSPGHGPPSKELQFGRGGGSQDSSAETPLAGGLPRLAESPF

Molecules are shown by their SMILES. pIC50: −log10 of the molar value.

In one test the target is T1, human GIP receptor (Homo sapiens, UniProt P48546).
T1 construct: expressed in transfected cells; host or cells: BHK (baby hamster kidney) cells, membrane preparation
T1 sequence (P48546 22-466): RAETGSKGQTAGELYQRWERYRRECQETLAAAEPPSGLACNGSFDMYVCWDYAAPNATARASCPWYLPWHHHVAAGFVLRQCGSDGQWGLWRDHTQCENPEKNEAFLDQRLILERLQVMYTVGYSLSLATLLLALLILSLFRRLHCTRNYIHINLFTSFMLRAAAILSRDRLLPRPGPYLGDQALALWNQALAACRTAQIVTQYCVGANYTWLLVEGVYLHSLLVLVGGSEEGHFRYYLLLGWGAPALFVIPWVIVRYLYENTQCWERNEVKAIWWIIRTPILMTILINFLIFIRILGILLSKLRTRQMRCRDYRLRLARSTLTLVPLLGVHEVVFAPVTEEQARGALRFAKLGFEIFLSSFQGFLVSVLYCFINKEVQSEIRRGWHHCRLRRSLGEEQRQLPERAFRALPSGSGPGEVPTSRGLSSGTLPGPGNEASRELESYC
The experiment in a line: GIP Binding Assay. As for the experimental part:
BHK (baby hamster kidney cell line) cells are transfected with the human GIP receptor and a membrane preparation of the cells is prepared.
All steps in the membrane preparation are kept on ice or performed at 4° C. BHK cells are harvested and centrifuged. The pellet is resuspended in homogenisation buffer (25 mM) HEPES, pH=7.4, 2.5 mM CaCl2, 1.0 mM MgCl2, 250 mg/L bacitracin, 0.1 mM Pefabloc), homogenised 2×10 sec using Polytron 10-35 homogenizer (Kinematica) and added the same amount of homogenisation buffer as used for resuspension. After centrifugation (15 min at 2000×g) the supernatant is transferred to cold centrifuge tubes and centrifuged for 45 min at 40.000×g. The pellet is resuspended in homogenisation buffer, homogenised 2×10 sec (Polytron) and additional homogenisation buffer is added. The suspension is centrifuged for 45 min at 40.000×g and the pellet is resuspended in resuspension buffer (25 mM HEPES, pH=7.4, 2.5 mM CaCl2, 1.0 mM MgCl2) and homogenised 2×10 sec. (Polytron). […] Stabilisation buffer (25 mM HEPES, pH=7.4, 2.5 mM CaCl2, 1.0 mM MgCl2, 1% bovine serum albumin, 500 mg/L bacitracin, 2.5 M sucrose) is added and the membrane preparation is stored at −80° C.
The GIP binding assay is carried out in opti plates (Polystyrene Microplates, Packard). […] The opti plates are counted in a Top-counter. Non-specific binding is determined with 500 nM of GIP.

Another test has as its target T2, human glucagon receptor (Homo sapiens, UniProt P47871).
T2 construct: expressed in transfected cells; host or cells: BHK (baby hamster kidney) cells, membrane preparation
The experiment in a line: Glucagon Binding Assay (II). As for the experimental part:
Glucagon Binding Assay (II)
BHK (baby hamster kidney cell line) cells are transfected with the human glucagon receptor and a membrane preparation of the cells is prepared.
All steps in the membrane preparation are kept on ice or performed at 4° C. BHK cells are harvested and centrifuged. The pellet is resuspended in homogenisation buffer (25 mM HEPES, pH=7.4, 2.5 mM CaCl2, 1.0 mM MgCl2, 250 mg/L bacitracin, 0.1 mM Pefabloc), homogenised 2×10 sec using Polytron 10-35 homogenizer (Kinematica) and added the same amount of homogenisation buffer as used for resuspension. After centrifugation (15 min at 2000×g) the supernatant is transferred to cold centrifuge tubes and centrifuged for 45 min at 40.000×g. The pellet is resuspended in homogenisation buffer, homogenised 2×10 sec (Polytron) and additional homogenisation buffer is added. The suspension is centrifuged for 45 min at 40.000×g and the pellet is resuspended in resuspension buffer (25 mM HEPES, pH=7.4, 2.5 mM CaCl2, 1.0 mM MgCl2) and homogenised 2×10 sec. (Polytron). […]
The glucagon binding assay is carried out in opti plates (Polystyrene Microplates, Packard). […] The opti plates are counted in a Topcounter. Non-specific binding is determined with 500 nM of glucagon.

The pIC50 is the IC50 on a negative log10 scale, so that one unit is a factor of ten. Read a high pIC50 as a low IC50. As for `O=C(NC[C@@H](O)C(=O)O)c1ccc(CN(C(=O)Nc2cc(F)cc(C(F)(F)F)c2)c2ccc(C3=CCCCC3)cc2)cc1` [Example 28], the pIC50 on human GIP receptor was 6.44; on human glucagon receptor it was 7.72.
